The nature of assay [1]: Selectivity ratio of MITC50 for VIM-1 expressing Klebsiella pneumoniae to IC50 for GST-tagged bacterial beta-lactamase VIM-1.
The nature of assay [2]: Selectivity ratio of MITC50 for NDM-1 expressing Escherichia coli to IC50 for GST-tagged bacterial beta-lactamase […].
Assay [3] is described as follows: Selectivity ratio of MITC50 for IMP-1 expressing Serratia marcescens to IC50 for GST-tagged bacterial beta-lactamase IMP-1.
A short description of assay [4]: Inhibition of GST-tagged bacterial beta-lactamase IMP-1 expressed in Escherichia coli BL21(DE3) using CCF2-FA as substrate by fluorescence assay. On the set-up: species or system Bacteria.

For `NS(=O)(=O)c1nccc(-c2ccc(CO)cc2)c1-c1nn[nH]n1`, the Selectivity ratio in assay [1] was found to be 43; in assay [2] it was 15; in assay [3], 14.
`NS(=O)(=O)c1cccc(-c2ccnc(CO)c2)c1-c1nn[nH]n1`: the 50% inhibitory concentration (IC50) in assay [4] worked out at 2530 nM.
For the compound `NS(=O)(=O)c1ccnc(-c2ccc(CO)cc2)c1-c1nn[nH]n1`, the Selectivity ratio came out at 63 in assay [2] and 48 in assay [3].

Source of the values: ChEMBL document CHEMBL5236617, “Rapid Evolution of a Fragment-like Molecule to Pan-Metallo-Beta-Lactamase Inhibitors: Initial Leads toward Clinical Candidates” (J Med Chem, 2022).
